# Reference: patent US20150038588A1, “COMPOSITIONS AND METHODS OF TREATMENT OF STATUS EPILEPTICUS” (published 2015)
# Several values for one entry are separate records, joined by “and”; a condition that tells them apart may be missing. Equal values may be shown once.
# Test system: soman-induced seizures
# Assay: soman-induced seizure (SE) delayed treatment model, anticonvulsant test with EEG
# Settings: for ED50 for anticonvulsant effect: IP, rats; for latency for seizure control (administration to last epileptiform event on EEG): 20 min versus 40 min treatment time
structure (smiles),measurement,setting,value
CCC(C)C(CC)C(N)=O (stereo not drawn),ED50 for anticonvulsant effect,5 min treatment delay after seizure onset,25.8 mg/kg
same,ED50 for anticonvulsant effect,20 min treatment delay after seizure onset,60 mg/kg and 60.0 mg/kg
same,latency for seizure control (administration to last epileptiform event on EEG),,shorter latency at the 20 min treatment time than the 40 min treatment time
same,latency for seizure control (administration to last epileptiform event on EEG),listed as valnoctamide (VCD),shorter latency at the 20-min treatment time than the 40-min treatment time
same,ED50 for anticonvulsant effect,40 min treatment delay after seizure onset,62 mg/kg and 62.0 mg/kg
same,anticonvulsant effect,"all three test delay times (5, 20, 40 min)",robust anticonvulsant effects
